{"source": "patent US20220195481A1", "about": "“MITOCHONDRIAL RESPIROMETRY IN FROZEN SPECIMENS” (The Regents of the University of Califormia, priority 2019, published 2022)", "origin": "cited, not measured here", "system": "Complex I", "settings": "background statement; cited from earlier work"}
{"smiles": "[H]/N=C(/N)N/C(=N/[H])NCCc1ccccc1", "note": "[Phenformin]", "values": [{"measurement": "market withdrawal due to toxicity", "result": "withdrawn from the market due to Complex I toxicity resulting in lactic acidosis"}]}
